{"sequences": {"note": "Sequences of proteins named here, by UniProt entry; tags and fusion partners are left off.", "UniProt P32307, whole entry": "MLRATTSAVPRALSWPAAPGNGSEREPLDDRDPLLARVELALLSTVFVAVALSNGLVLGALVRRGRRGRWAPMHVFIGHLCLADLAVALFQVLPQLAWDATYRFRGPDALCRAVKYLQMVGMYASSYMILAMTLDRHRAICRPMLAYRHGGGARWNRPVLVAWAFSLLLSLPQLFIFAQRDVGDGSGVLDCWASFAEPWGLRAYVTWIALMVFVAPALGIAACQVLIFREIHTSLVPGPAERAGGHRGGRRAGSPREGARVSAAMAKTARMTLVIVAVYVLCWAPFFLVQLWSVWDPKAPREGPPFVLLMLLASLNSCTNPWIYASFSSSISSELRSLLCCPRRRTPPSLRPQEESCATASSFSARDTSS"}, "source": "ChEMBL document CHEMBL1129881", "about": "(Bioorg Med Chem Lett, 1997)", "molecular_target": "Vasopressin V2 receptor (Sus scrofa, UniProt P32307)", "assay": "Tested for the inhibition to V2 subtype receptor using [3H]- (VS2) as radioligand at 3 nM and arginine-vasopressin at 2 uM in LLCPKI cells", "assay_type": "cell-based", "data": [{"compound": "NC(=O)CC[C@@H]1NC(=O)[C@H](Cc2ccccc2)NC(=O)[C@H](Cc2ccc(O)cc2)NC(=O)[C@@H](N)CSSC[C@@H](C(=O)N2CCC[C@H]2C(=O)N[C@@H](CCCN=C(N)N)C(=O)NCC(N)=O)NC(=O)[C@H](CC(N)=O)NC1=O", "note": "[VASOPRESSIN]", "values": [{"measurement": "IC50", "value": 3.3, "unit": "nM"}]}]}
